We go through one compound from article PMC9751974 (Frontiers in Microbiology, 2022).

This experiment concerns E. coli ATCC25922. Particulars: LB broth, 1 × 10^5 CFU/mL, 37°C, 16–24 h, triplicate. As to the method:
The MIC values of peptides against E. coli ATCC25922 were determined by the microtiter broth dilution method. The bacteria were grown to the mid-logarithmic phase and diluted into the Luria-Bertani (LB) broth at 1 × 10^5 CFU/mL. […] Polymyxin and the sterile aqua distillate were tested as control. All assays were performed in triplicate.

Values after ≈ are worked out from the molar mass of the structure shown.

A word on the MIC: it is the lowest concentration found to suppress growth.

In turn, `CC[C@H](C)[C@H](NC(=O)[C@H](CCCNC(=N)N)NC(=O)[C@@H](NC(=O)[C@H](C)NC(=O)[C@@H](NC(=O)[C@@H](NC(=O)[C@H](CC(C)C)NC(=O)[C@H](CCCNC(=N)N)NC(=O)[C@@H](N)C(C)C)[C@@H](C)CC)C(C)C)C(C)C)C(=O)N[C@@H](Cc1c[nH]c2ccccc12)C(=O)N[C@@H](CCCNC(=N)N)C(=O)N[C@@H](CCCNC(=N)N)C(N)=O` [IDR-1018] gave a minimum inhibitory concentration (MIC) of 8 µg/mL (≈ 5.21 µM).
